Test results reported in US8044198B2, “Sirtuin modulating compounds” (Sirtris Pharmaceuticals, Inc., priority 2005, dated 2011).
Read-outs that look alike come from different tables or passages of the source.

Sequences of proteins named here, by UniProt entry; tags and fusion partners are left off.
UniProt Q96EB6, whole entry: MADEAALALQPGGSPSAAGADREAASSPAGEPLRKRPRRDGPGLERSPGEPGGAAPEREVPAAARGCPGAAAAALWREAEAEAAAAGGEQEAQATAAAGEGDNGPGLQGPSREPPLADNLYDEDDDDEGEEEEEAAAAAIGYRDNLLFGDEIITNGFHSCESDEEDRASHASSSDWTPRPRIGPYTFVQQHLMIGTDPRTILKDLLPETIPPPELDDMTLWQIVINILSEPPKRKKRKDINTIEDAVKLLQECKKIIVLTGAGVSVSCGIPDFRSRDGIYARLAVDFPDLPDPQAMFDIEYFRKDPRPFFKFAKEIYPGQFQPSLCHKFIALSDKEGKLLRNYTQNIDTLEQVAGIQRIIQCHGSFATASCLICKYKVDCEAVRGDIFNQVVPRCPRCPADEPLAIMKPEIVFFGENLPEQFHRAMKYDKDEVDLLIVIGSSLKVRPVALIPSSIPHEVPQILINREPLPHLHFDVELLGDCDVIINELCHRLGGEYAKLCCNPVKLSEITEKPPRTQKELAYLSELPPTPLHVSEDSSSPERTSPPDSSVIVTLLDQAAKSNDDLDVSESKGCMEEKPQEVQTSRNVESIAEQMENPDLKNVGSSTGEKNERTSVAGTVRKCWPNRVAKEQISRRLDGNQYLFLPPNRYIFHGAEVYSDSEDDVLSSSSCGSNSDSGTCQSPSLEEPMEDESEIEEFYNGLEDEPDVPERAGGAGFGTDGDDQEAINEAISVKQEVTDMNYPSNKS

Biological target: SIRT1 (Homo sapiens, UniProt Q96EB6)
Test: SIRT1 mass spectrometry (MS) based deacetylation assay; for FOLD ACT. MS: test concentration or dose not given here
Format: biochemical
Conditions: for EC50: read-out: ED50 MS ASSAY, SIRT1 activation, mass spectrometry assay

Row | FOLD ACT. MS (fold activation of SIRT1, mass spectrometry assay) | EC50 [µM] | FOLD ACT. MS (SIRT1 fold activation as determined by MS, tested form: TFA salt) | EC50 (tested form: TFA salt) [µM] | Structure (SMILES)
1 | B (B (Fold Activation <250%)) | < 5 | – | – | CN(C)c1cccc(C(=O)Nc2ccc(-c3nc4ccccc4[nH]3)cc2)c1
2 | – | – | A (A (Fold activation >250%)) | < 5 | COc1cc(OC)cc(C(=O)Nc2ccccc2-c2nc3cc(CN4CCOCC4)cnc3s2)c1
